The values that follow come from ChEMBL document CHEMBL5727553.

Sequences of proteins named here, by UniProt entry; tags and fusion partners are left off. Residues count along the entry.
UniProt P54289, 25-956 limits assumed: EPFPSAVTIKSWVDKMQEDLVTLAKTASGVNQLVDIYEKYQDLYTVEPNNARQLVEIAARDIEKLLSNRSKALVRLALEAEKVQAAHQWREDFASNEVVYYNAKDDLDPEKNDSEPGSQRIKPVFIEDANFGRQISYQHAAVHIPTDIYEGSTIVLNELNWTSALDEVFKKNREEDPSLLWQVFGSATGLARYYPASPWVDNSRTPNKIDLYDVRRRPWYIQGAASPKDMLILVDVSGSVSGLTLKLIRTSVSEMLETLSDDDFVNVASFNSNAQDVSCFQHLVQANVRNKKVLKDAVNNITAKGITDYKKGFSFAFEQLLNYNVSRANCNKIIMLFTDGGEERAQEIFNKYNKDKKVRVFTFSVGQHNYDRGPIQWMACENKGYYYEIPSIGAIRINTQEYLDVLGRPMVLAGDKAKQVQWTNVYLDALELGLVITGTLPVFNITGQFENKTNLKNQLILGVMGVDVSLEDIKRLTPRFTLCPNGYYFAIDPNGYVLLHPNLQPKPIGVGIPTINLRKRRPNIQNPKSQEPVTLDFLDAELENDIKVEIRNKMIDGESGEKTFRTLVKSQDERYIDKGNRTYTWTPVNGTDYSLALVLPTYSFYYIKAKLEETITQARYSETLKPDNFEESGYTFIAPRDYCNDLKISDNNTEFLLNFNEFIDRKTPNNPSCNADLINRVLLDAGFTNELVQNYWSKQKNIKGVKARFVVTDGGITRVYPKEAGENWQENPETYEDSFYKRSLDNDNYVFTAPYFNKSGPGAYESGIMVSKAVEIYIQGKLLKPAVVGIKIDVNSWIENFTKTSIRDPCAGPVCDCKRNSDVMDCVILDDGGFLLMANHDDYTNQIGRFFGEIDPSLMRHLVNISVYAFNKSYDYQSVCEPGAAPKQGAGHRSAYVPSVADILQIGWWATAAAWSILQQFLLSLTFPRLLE
UniProt P54289, 957-1103 limits assumed: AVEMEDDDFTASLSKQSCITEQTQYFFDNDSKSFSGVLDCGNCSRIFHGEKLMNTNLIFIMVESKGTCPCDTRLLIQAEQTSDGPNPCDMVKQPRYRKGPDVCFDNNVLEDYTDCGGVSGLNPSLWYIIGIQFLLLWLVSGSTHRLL
UniProt P35372, whole entry: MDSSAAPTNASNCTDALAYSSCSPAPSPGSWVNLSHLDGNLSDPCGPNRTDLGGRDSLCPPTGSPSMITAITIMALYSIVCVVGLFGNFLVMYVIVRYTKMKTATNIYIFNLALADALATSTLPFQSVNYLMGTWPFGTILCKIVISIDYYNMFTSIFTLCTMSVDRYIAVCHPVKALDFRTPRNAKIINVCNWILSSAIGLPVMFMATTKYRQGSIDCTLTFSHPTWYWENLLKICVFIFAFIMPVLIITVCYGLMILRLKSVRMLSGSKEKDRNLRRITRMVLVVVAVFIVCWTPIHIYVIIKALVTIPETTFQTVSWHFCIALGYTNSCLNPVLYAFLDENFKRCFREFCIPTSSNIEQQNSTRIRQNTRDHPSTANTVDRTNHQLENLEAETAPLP

In experiment [1] the target is Voltage-dependent calcium channel subunit alpha-2/delta-1 (Homo sapiens, UniProt P54289).
Another experiment deals with Mu-type opioid receptor (Homo sapiens, UniProt P35372). The experiment is described as follows: Human mu-Opioid Receptor Radioligand Assay: To investigate binding properties of test compounds to human μ-opioid receptor, transfected CHO-K1 cell membranes and [3H]-DAMGO (Perkin Elmer, ES-542-C), as the radioligand, were used. The assay was carried out with 20 μg of membrane suspension, 1 nM of [3H]-DAMGO in either absence or presence of either buffer or 10 μM Naloxone for total and non-specifi.

The Ki is the equilibrium dissociation constant of an inhibitor or competing ligand from its target. On to `O=C(c1cccs1)N(c1cncc(-c2ccc(F)cc2)n1)C1CCNCC1`, for which the figures for the Ki (in experiment [1]; on Mu-type opioid receptor) were greater than 5000 nM and greater than 500 nM, respectively.
For the molecule `CN(CCN(C(=O)c1cccs1)c1ccn(-c2ccccc2)n1)Cc1ccccn1`, the Ki at Mu-type opioid receptor is 100 to 500 nM.
